Entries after “also recorded” stand apart in the source; their conditions may differ.
Assays:
[1] = test system: squamous carcinoma of head and neck; experiment: Tumor response (RECIST 1.1) after single dose of conjugate and 690 nm light (PIT); format: in vivo, human
Protocol: Each cohort included three (3) patients.
To induce photoimmunotherapy (PIT), one light application with a light having a wavelength of 690 nm was performed at 24 hours±3 hours (Day 2) post conjugate administration. 690 nm light was administered to the tumor via 400 micron glass fiber microlens forward firing fibers for surface illumination of tumors that were less than 10 mm thick, or via cylindrical diffuser fibers placed into the tumor for tumors that were greater than 10 mm thick or for subcutaneous tumors. Light treatment was fixed at a low fluence of 50 J/cm^2 for superficial illumination or 100 J/cm fiber length for interstitial illumination (at a fluence rate of 150 mW/cm^2 for superficial illumination and 400 mW/cm fiber length for interstitial illumination).
The tumor response was evaluated according to the RECIST (Response Evaluation Criteria In Solid Tumors) criteria as outlined in the revised version 1.1 guidelines (RECIST 1.1, see Eisenhauer et al. (2009) European Journal of Cancer, 45:228-247). A response was determined to be a “complete response” (CR) if there was a disappearance of all target lesions, and any pathological lymph nodes (whether target or non-target) were reduced in short axis to <10 mm. A response was determined to be a “partial response” (PR) if there was at least a 30% decrease in the sum of diameter of target lesions (e.g., at least 30% reduction in tumor growth), taking as reference the baseline sum diameters of the target lesions prior to the treatment. The “objective response rate” (ORR) is the percentage of subjects in which a CR or PR response was observed.

BxPC3 cells [2] = experiment: In vitro PIT, titration of conjugate at two light doses; format: cell-based
Protocol: Then, 8 J/cm^2 of 690 nm light was applied to induce PIT. To monitor the progression of cell death after light treatment, the conjugate containing medium was replaced by fresh medium containing CellTox Green (Promega), a dye that reports cell death based on compromised cell membrane integrity. Time dependent increase in cell death was observed over 24 hours. As a control, cell death also was assessed in cells in which cetuximab-IRDye 700DX conjugate was not added (designated “NT”).

BxPC3 cells [3] = experiment: PIT with cetuximab conjugates with or without donkey anti-human-IRDye 700DX; format: cell-based; conditions: 250 ng/mL 1st incubation
Protocol: The cells were then washed one time with complete culture media, incubated for 30 minutes at 4° C. with or without 2 μg/mL Donkey anti-Human IRDye 700DX conjugated (DxHu IR700) secondary antibody diluted with complete culture media, and then washed one time with complete culture media. The cells were then illuminated with a 690 nm laser at a light dose of 16 J/cm^2 or protected from light (“no light”).
The effect of different treatment regimens on cell death was measured using the fluorescent stain, CellTox Green (Cat No: G8731, Promega, Madison, Wis.). […] After the light treatment, all cells were incubated with 1× CellTox Green reagent diluted in complete culture media. […] The CellTox Green fluorescence signal was measured at 24 hours after light treatment using a fluorescence plate reader. The cells were then lysed with detergent, incubated at 37° C. for 30 minutes, and the CellTox Green fluorescence signal was measured again post lysis. The percent dead cells was calculated by taking the ratio between background (lx CellTox Green in complete culture media without cells) subtracted CellTox Green signal per well prior to and post lysis and multiplying the ratio by 100.

[4] = Clinical safety of the infusions
[5] = 2nd incubation 2 μg/mL Don × Hu IRDye 700DX

## cetuximab-IRDye 700DX: conjugate containing IRDye 700DX (IR700) linked to cetuximab
[1]; all three cohorts (160, 320, 640 mg/m^2), light at 24 h
  tumor response: partial or complete response; also recorded: rapid and effective tumor response
[1]; evidence of tumor necrosis
  time to observed tumor response: as early as four days
[1]; single dosage treatment, head and neck cancer patients
  objective response rate (ORR): 100%
BxPC3 cells [2]; 16 J/cm^2
  half maximal cell death (EC50) from PIT: 0.0226 µg/mL
BxPC3 cells [2]; 32 J/cm^2
  half maximal cell death (EC50) from PIT: 0.0137 µg/mL
BxPC3 cells [3]; [5]
  % Dead cells 690 nm Light (16 J/cm^2): 96.66% +/− 4.24%
  % Dead cells No Light: 7.89% +/− 0.24%
BxPC3 cells [3]; no 2nd incubation
  % Dead cells 690 nm Light (16 J/cm^2): 65.76% +/− 5.14%
  % Dead cells No Light: 7.44% +/−1.10%
[4]; IV infusion over 2 hours
  adverse effects to the infusion: None of the patients showed adverse effects to the infusion
[4]; human, in vivo
  skin photosensitivity to ambient light: No skin photosensitivity to ambient light was detected

Reference: patent US11147875B2, “Compositions, combinations and related methods for photoimmunotherapy” (priority 2015, dated 2021)
